Test results published in patent publication US12594337B2, “Human serum albumin in formulations” (Regeneron Pharmaceuticals, Inc., priority 2019, dated 2026).

Legend:
[1] = Prevention of fatty acid particle formation in PS80/lipase solution, turbidity (absorbance at 450 nm); assay type: physicochemical; conditions: 25° C., six hours; for effect on particle formation (appearance of particles, turbidity) / onset of turbidity: 0.1% PS80, lipase
Protocol: Particle detection by turbidity measurement. A plate-based assay was used to detect the presence of particles by monitoring absorbance at 450 nm over time, typically 2-4 hours. The assay detects particles larger than approximately 20 nm, based on fundamental principles of light scattering (assessment of turbidity). Purified lipase was added to TKC buffer containing 0.1% polysorbate 80 at final concentration ranging from 0.4 to 5 μg/mL. The absorbance was measured at 5 minute intervals with intermittent shaking on a Spectra Max 340 plate reader held at 25° C. Baseline values were established by measuring absorbance of 0.1% polysorbate 80 without addition of lipase. Instrument control, data acquisition, and analysis were performed using SoftMax Pro software (version 6.5).
HSA contains several high and low affinity binding sites for fatty acids and therefore has the potential to act as a fatty acid sink, which could inhibit particle formation upon polysorbate hydrolysis. To test the effectiveness of HSA in preventing particle formation, 0.1% PS80 was incubated with 0.5 μg lipase in the presence of increasing concentrations of FAF-HSA at 25° C. and the solution turbidity was monitored by measuring the absorbance at 450 nm for six hours.
HSA loaded with stearic acid (SA-HSA) was prepared by adding 70 mM pure stearic acid (Sigma) in ethanol to FAF-HSA in a 3:1 molar ratio, incubating at room temperature for 30-60 minutes at 25° C., then centrifuging at 22,000 rcf for 4 minutes to pellet un-bound steric acid, followed by addition of 0.5 mg lipase and 0.1% PS80, and absorbance at 450 nm was monitored for six hours.
To test specificity of fatty acid particle mitigation to HSA, different concentrations of human polyclonal IgG were added to solution containing 0.5 μg lipase and 0.1% PS80 at 25° C. and absorbance at 450 nm was monitored for six hours.
The increase in turbidity can likely attributed to protein lyophilization. To determine if the increase in turbidity was due to the way that the protein was processed (i.e., lyophilized), a solution-state mAb in two ways was prepared; one that was unmodified from its purified solution state, and one that mimicked the manufacturer's lyophilization process used for the poly IgG preparation. The monoclonal antibody was lyophilized and reconstituted per the polyclonal IgG manufacturer's instructions to replicate processing, and then added to a solution containing 0.5 μg lipase and 0.1% PS80 at 25° C. and absorbance at 450 nm was monitored for six hours. […] The plots depict absorbance at 450 nm as a function of time for various monoclonal IgG concentrations. A positive control sample with lipase and PS80 but without IgG (open diamonds) provides the upper limit for absorbance (˜0.55).

[2] = Solubilization of pre-formed fatty acid particles by FAF-HSA, turbidity (absorbance at 450 nm); assay type: physicochemical
Protocol: Particles were prepared by incubating 2.5 μg/mL lipase with PS80 in TKC buffer at room temperature for 3 hours, followed by centrifugation. The supernatant was discarded and the pellet was washed with buffer one time and reconstituted by sonication. For particle generation in the presence of IgG, human polyclonal IgG was added to a final concentration of 7.5 mg/mL. Mechanically dispersed pellets were deposited on 5 μm polycarbonate membrane filters (RapID; Monmouth Junction, NJ). Raman spectroscopy was performed on the particle using a RapID Single Particle Explorer with a 785 nm monochromatic laser at 100% intensity/10 second exposure time in the 50× objective to generate spectra specific to the sample.
To test the ability of HSA to solubilize pre-formed particles in solution, particles were prepared (See Materials and Methods) and diluted to obtain a maximum absorbance of ˜0.5 OD. […] A positive control sample with lipase and PS80 but without HSA (FIG. 8, closed triangles) provides the upper limit for absorbance (˜0.5).

absorbance at 450 nm over the time period ([1]; 7.5 mg/mL FAF-HSA, 0.1% PS80, 0.5 μg lipase) | concentration giving complete inhibition of turbidity ([1]; 0.1% PS80, 0.5 μg lipase) [mg/mL] | Substance | effect on particle formation (appearance of particles, turbidity) [1] | onset of turbidity [1] | HSA concentrations at which pre-formed particles were not fully solubilized (plateaus) ([2]; pre-formed particles diluted to ~0.5 OD) | solution turbidity upon addition to pre-formed fatty acid particles ([2]; pre-formed particles diluted to ~0.5 OD, six hours) | HSA concentrations necessary to fully disrupt pre-formed particles ([2]; within the limits of the turbidity assay) | final absorbance at 450 nm (turbidity) ([1]; 0.1% PS80, 0.5 μg lipase, increasing FAF-HSA concentrations, versus control without FAF-HSA)
 |  | SA-HSA: HSA loaded with stearic acid, prepared by adding stearic acid to FAF-HSA in a 3:1 molar ratio | particle formation was not inhibited | shorter compared to samples containing equivalent amounts of FAF-HSA |  |  |  | 
did not show any appreciable absorbance | 7.5 | FAF-HSA: lyophilized fatty acid free Human Serum Albumin purchased from Sigma-Aldrich | dose dependent response | temporal delay in the onset of turbidity | less than or equal to 3.5 mg/mL | rapidly decreased | above 5.5 mg/mL | decrease in the final absorbance (lower turbidity)
